Experimental data from ChEMBL document CHEMBL5236581, “A Versatile and Sustainable Multicomponent Platform for the Synthesis of Protein Degraders: Proof-of-Concept Application to BRD4-Degrading PROTACs” (J Med Chem, 2022).
Calls of active or inactive are those of the source. The rule behind the calls is not given here.

The chains behind the UniProt entries cited, without tags or fusion partners.
UniProt P40337, whole entry, looked up: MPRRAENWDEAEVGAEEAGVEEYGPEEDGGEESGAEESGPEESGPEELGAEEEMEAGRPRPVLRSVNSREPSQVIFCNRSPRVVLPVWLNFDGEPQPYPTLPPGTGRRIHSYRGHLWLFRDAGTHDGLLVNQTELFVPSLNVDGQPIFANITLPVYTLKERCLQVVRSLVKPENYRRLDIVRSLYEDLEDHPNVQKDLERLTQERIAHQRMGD

Target: von Hippel-Lindau disease tumor suppressor/Bromodomain-containing protein 4 (Homo sapiens) (UniProt O60885+P40337)
Experiment: Protac activity at BRD4/VHL E3 ligase in human MDA-MB-231 cells assessed as decrease in BRD4 expression at 1 uM incubated for 4 to 24 hrs by Western blot analysis
Type: cell-based
Settings: time lower 4.0 hrs, time upper […]

## Cc1ncsc1-c1ccc(CNC(=O)[C@@H]2C[C@@H](O)CN2C(=O)[C@@H](NC(=O)COCCOCCOCCNC(=O)C[C@@H]2N=C(c3ccc(Cl)cc3)c3c(sc(C)c3C)-n3c(C)nnc32)C(C)(C)C)cc1
  Activity: Active
